Target: Vascular endothelial growth factor receptor 3 (Homo sapiens, UniProt P35916)

Sequences of proteins named here, by UniProt entry; tags and fusion partners are left off.
UniProt P35916, whole entry: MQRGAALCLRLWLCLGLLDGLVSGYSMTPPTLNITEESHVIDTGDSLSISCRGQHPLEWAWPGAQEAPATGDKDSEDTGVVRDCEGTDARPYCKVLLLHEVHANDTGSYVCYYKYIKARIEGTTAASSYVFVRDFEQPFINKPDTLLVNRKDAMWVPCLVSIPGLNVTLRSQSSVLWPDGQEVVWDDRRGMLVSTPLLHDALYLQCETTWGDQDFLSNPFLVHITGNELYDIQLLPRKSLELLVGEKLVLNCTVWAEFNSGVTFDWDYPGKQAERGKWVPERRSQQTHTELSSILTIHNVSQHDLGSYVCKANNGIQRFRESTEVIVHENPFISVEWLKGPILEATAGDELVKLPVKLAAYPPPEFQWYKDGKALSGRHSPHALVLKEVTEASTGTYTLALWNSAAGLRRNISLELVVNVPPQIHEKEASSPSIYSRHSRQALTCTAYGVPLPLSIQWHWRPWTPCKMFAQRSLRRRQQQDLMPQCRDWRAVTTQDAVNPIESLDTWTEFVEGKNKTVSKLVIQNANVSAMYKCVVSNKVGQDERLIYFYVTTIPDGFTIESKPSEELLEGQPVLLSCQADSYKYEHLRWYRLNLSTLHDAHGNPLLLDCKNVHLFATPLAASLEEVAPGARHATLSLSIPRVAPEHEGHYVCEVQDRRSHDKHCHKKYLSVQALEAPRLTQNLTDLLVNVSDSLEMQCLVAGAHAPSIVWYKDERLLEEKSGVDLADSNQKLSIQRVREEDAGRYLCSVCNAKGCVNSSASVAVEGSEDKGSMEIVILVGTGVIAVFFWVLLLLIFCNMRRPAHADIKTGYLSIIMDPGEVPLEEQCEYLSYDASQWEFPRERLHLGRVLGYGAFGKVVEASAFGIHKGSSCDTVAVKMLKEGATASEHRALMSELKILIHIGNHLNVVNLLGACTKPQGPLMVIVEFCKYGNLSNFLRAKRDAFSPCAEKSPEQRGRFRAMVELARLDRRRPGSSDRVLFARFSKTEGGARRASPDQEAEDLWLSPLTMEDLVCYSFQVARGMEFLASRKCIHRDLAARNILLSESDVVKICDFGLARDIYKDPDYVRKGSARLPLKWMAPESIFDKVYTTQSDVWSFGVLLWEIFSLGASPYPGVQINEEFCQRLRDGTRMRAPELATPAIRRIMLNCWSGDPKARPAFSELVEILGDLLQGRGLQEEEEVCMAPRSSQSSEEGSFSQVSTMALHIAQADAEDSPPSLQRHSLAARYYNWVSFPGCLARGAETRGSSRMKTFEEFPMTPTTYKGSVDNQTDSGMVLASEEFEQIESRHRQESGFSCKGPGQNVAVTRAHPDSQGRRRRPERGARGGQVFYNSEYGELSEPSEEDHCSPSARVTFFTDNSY

SMILES: COc1cc2nccc(Oc3ccc(NC(=O)Nc4cc(C)on4)c(Cl)c3)c2cc1OC [TIVOZANIB]
- IC50: 15 nM
